This assay deals with ENaC (Epithelial Sodium Channel) (Mus musculus, UniProt Q61180+Q9WU38+Q9WU39). In words: Ussing chamber: short circuit current in M-1 cells. The conditions noted are these: mouse kidney M-1 cells, amiloride sensitive I_SC, apical application, 37° C. Format: cell-based.

Sequences of proteins named here, by UniProt entry; tags and fusion partners are left off.
UniProt Q61180, whole entry: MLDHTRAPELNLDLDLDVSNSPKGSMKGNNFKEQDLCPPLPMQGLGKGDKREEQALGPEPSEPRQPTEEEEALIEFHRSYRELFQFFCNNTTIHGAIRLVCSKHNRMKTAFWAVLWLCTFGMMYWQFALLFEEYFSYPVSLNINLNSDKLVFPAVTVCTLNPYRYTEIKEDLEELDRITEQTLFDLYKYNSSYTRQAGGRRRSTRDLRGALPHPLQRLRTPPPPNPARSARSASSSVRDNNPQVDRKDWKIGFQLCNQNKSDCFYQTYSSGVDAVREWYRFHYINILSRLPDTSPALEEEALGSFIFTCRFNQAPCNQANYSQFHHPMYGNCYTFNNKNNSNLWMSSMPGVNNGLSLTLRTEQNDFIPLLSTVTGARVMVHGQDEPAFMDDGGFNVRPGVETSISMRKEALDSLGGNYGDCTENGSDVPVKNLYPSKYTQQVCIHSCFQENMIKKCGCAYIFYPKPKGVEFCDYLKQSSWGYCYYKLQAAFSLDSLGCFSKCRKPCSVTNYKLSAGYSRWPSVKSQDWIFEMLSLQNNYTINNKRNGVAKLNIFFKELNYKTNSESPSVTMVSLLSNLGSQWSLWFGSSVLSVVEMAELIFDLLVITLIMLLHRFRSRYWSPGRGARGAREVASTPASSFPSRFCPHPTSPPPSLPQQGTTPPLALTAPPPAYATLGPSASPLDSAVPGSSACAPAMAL
UniProt Q9WU38, whole entry: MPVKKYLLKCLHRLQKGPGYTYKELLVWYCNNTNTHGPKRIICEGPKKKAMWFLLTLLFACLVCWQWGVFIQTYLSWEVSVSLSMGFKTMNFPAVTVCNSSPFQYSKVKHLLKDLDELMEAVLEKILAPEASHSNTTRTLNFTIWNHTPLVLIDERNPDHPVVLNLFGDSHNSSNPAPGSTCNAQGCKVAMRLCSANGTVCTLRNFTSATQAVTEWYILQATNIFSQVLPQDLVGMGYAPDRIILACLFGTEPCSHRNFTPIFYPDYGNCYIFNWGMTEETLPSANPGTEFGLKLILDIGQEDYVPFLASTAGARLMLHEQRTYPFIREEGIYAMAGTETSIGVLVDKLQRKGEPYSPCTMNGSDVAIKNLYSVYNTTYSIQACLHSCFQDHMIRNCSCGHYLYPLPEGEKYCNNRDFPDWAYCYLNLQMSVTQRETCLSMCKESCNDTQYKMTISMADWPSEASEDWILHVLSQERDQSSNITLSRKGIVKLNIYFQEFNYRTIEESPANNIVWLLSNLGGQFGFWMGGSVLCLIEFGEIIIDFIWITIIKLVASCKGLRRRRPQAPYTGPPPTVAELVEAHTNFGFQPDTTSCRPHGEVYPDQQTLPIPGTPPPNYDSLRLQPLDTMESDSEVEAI
UniProt Q9WU39, whole entry: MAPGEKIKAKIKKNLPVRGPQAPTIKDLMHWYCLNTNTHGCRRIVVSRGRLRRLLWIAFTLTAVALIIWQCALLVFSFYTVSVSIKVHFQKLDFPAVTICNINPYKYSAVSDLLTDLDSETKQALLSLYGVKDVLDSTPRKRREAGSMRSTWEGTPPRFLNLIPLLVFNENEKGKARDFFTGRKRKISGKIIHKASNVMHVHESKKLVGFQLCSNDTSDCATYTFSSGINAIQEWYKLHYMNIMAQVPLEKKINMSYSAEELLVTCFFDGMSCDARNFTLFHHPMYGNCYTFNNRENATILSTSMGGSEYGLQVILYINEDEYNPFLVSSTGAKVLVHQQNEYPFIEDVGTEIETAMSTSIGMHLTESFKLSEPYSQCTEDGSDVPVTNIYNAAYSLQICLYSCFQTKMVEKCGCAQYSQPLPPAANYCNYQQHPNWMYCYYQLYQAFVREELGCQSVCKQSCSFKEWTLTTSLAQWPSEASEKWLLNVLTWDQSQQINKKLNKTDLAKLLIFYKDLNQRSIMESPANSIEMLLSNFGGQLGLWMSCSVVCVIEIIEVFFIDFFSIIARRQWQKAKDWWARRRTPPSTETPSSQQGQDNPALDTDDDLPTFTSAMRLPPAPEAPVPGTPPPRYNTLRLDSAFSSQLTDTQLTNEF

Three molecules from patent US9073954B2, “5-substituted benzimidazolium compounds” (Boehringer Ingelheim International GmbH, priority 2013, dated 2015) can be followed below.

For orientation: pIC50 means the IC50 on a negative log10 scale, so that one unit is a factor of ten.

pIC50: −log10 of the molar value.

As for `CCn1c(CNC(=O)c2nc(Cl)c(N)nc2N)[n+](C[C@H](C)O)c2cc(O[C@H]3CO[C@H]4[C@@H]3OC[C@@H]4O)ccc21`, for the setting “tested form: TFA”, the pIC50 was 9.00.

`CCn1c(CNC(=O)c2nc(Cl)c(N)nc2N)[n+](CC)c2ccc(OCCOP(=O)(O)CCC[N+](C)(C)C)cc21`: for the setting “tested form: TFA salt”, the pIC50 was 8.52.

`CCn1c(CNC(=O)c2nc(Cl)c(N)nc2N)[n+](CC)c2ccc(OCCCP(=O)(O)OCC[N+](C)(C)C)cc21`: the pIC50 (tested form: TFA salt) is 8.52.
